Source: patent US10426772B2, “Use of ergot alkaloids as an anthelmintic agent” (priority 2016, dated 2019)
Like-named read-outs stand apart in the source and are kept apart here.

The chains behind the UniProt entries cited, without tags or fusion partners.
UniProt G4V5G4, entry or part of it: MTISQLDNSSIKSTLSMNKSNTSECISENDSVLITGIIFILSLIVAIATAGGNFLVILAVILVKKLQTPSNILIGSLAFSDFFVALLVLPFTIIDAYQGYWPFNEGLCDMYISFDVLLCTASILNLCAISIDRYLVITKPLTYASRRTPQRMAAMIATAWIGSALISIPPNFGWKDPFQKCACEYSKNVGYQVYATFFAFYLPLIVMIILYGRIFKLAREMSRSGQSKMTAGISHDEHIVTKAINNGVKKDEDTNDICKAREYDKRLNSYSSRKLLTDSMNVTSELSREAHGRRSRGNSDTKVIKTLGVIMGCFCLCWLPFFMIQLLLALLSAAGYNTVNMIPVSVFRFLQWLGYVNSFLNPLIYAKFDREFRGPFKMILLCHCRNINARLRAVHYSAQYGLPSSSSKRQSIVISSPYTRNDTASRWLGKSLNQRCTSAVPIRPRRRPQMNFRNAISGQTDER

Biological target: Sm.5HTR (Schistosoma mansoni, UniProt G4V5G4)
Format: cell-based
Method: HEK293 cells (ATCC CRL-1573.3) were cultured in DMEM supplemented with 10% fetal bovine serum (FBS), penicillin (100 units/mL), streptomycin (100 μg/mL), and L-glutamine (290 μg/mL). Cells were transiently transfected (ViaFect, Promega) as per the manufacturer's protocol at a density of 2×10^6 cells per T-25 cell-culture flask. Cells were transfected with plasmids encoding GloSensor (Promega) and either Sm.5HTR, (Smp_126730, GenBank accession number KF444051.1) or Sm.5HTRL (KX150867), both GPCRs being codon optimized for mammalian expression, or Hs.5HT7a (GenBank accession number NM_000872.4, R&D Systems) subcloned into pCS2(−). Cell culture reagents were from Invitrogen. Epitope tagged constructs were used to verify expression, and untagged constructs used for all luminescence assays.
For assays performed on adherent cells, HEK-293 cells were transferred one day post transfection to 96 well, solid white plates (Corning, cat #3917) coated with 0.01% poly-L-lysine (Sigma Aldrich) at a density of 5×10^4 cells/well in DMEM supplemented with 1% dialyzed FBS (Gibco). […] Plates were allowed to equilibrate at room temperature for two hours prior to performing luminescence assays (GloMax-Multi Detection System plate reader, Promega). […]
The protocol for screening is shown schematically in FIG. 5A. […] Luminescence was then read at a fixed time point (t=60 minutes, FIG. 5A). […]

NCCc1c[nH]c2ccc(O)cc12 [5-HT, Serotonin]
EC50 (5-HT, adherent cells, F20 sensor, (−) IBMX, 60 minutes, read-out: EC50): 700 nM | EC50 (read-out: EC50, activation of Sm.5HTR): 2000 ± 200 nM
